Values of other authors as cited in patent publication US6511970B1, “Prevention of ovarian cancer by administration of products that induce transforming growth factor-beta and/or apoptosis in the ovarian epithelium” (New Life Pharmaceuticals Inc., priority 1996, dated 2003).

Details: ppm (mg/kg); cited from earlier work

[Se] [selenium]
level at which it becomes toxic: 8-10 ppm
